The assay deals with SMYD2 (Homo sapiens (Human), UniProt Q9NRG4). Briefly: Scintillation Proximity Assay (SPA) for detection of SMYD2 enzymatic inhibition. In kind it is biochemical. The conditions noted are these: read-out: IC50 [mol/l] (SPA Assay). As for the experimental part:
1.1 Scintillation Proximity Assay (SPA) for Detection of SMYD2 Enzymatic Inhibition
The SMYD2 full length enzyme was produced in-house by expression (with an N-terminal 6×His tag) in E. coli and purification by affinity chromatography on a Ni-NTA Sepharose column followed by a size exclusion chromatography step on a Superdex 200 16/60 column (GE Healthcare).
To this end, 100-fold concentrated compound solutions (in DMSO) were previously prepared by serial dilution (1:3.4) of 2 mM stocks in a clear low volume 384-well source microtiter plate (Greiner Bio-One), from which 50 nl of compound solutions were transferred into a white low volume test microtiter plate from the same supplier. […] The samples were then incubated for 15 min at 22° C. to allow pre-equilibration of the putative enzyme-inhibitor complexes before the start of the methylation reaction, which was initiated by the addition of 2.5 μl 2-fold concentrated solution (in assay buffer) of titrated S-Adenosyl-L-Methionine (3H-SAM, Perkin Elmer, final concentration: 60 nM) and p53 Peptide substrate (final concentration: 1.0 μM). The resulting mixture (5 μl final volume) was shortly centrifuged (2 min., 1500 rpm) and incubated at 22° C. during 30 min. Thereupon the reaction was stopped by adding 3 μl of Streptavidin PS SPA imaging beads (Perkin Elmer, final concentration of 3.12 μg/μl) and “cold” SAM (AK Scientific, 25 μM final concentration) for non-specific binding reduction. Plates containing the stopped reaction were sealed with transparent adhesive foil (Perkin Elmer), centrifuged (2 min., 1500 rpm), and further incubated for—at least—1 h at RT (or overnight at 4° C.) in order to allow the SPA signals to develop. […] IC50 values were calculated by fitting the normalized inhibition data to a 4-parameter logistic equation using the “Screener” analysis software from Genedata.
On the technique in general: Scintillation proximity formats need no separation of bound from free tracer.

By UniProt entry, the sequences of proteins in these tests, tags left out. Where a name states a change or a piece, a line headed by the entry shows the natural chain unless it says otherwise.
UniProt Q9NRG4: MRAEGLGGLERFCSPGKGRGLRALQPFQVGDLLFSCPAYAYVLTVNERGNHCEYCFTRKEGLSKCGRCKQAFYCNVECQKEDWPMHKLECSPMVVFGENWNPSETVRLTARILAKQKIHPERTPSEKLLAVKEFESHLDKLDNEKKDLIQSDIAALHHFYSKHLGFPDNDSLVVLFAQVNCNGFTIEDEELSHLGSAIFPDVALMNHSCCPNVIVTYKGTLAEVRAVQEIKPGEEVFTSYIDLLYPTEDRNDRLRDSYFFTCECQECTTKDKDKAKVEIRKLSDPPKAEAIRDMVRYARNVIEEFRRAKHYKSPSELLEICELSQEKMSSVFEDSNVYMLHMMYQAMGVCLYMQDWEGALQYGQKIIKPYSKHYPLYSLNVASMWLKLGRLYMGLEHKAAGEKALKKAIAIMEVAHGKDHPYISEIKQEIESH

[1] abbreviates: methylation of biotinylated p53 Peptide, 3H-SAM, full length SMYD2.

Like-named read-outs stand apart in the source and are kept apart here. Some results are limits rather than exact numbers.

`CCN(C(=O)CO)C1CN(/C(=N\C#N)Nc2cc(C(F)(F)F)ccc2CN2CCCC2)N=C1c1ccc(Cl)c(Cl)c1` (single isomer, unassigned) [Example 27.1, N-[1-{N′-cyano-N-[2-(pyrrolidin-1-ylmethyl)-5-(trifluoromethyl)phenyl]carbamimidoyl}-3-(3,4-dichlorophenyl)-4,5-dihydro-1H-pyrazol-4-yl]-N-ethyl-2-hydroxyacetamide]: under setting [1], the IC50 was determined as 73.2 nM. The same measure, in the same setting: then `CCN(C(=O)CO)C1CN(/C(=N\C#N)Nc2cc(OC(F)F)ccc2OC)N=C1c1ccc(Cl)c(Cl)c1` (single isomer, unassigned) [Example 18.1, N-[1-{N′-cyano-N-[5-(difluoromethoxy)-2-methoxyphenyl]carbamimidoyl}-3-(3,4-dichlorophenyl)-4,5-dihydro-1H-pyrazol-4-yl]-N-ethyl-2-hydroxyacetamide], with greater than 20000 nM; and `CCN(C(=O)CO)C1CN(/C(=N\C#N)Nc2cc(F)cc(OC(F)(F)F)c2)N=C1c1ccc(Cl)c(Cl)c1` (single isomer, unassigned) [Example 25.2, N-[1-{N′-cyano-N-[3-fluoro-5-(trifluoromethoxy)phenyl]carbamimidoyl}-3-(3,4-dichlorophenyl)-4,5-dihydro-1H-pyrazol-4-yl]-N-ethyl-2-hydroxyacetamide], with 10300 nM; and `CCN(C(=O)CCN)C1CN(/C(=N\C#N)Nc2cccc(OC(F)F)c2)N=C1c1ccc(Cl)c(Cl)c1` (racemic) [Example 6, Rac-N-[1-{N′-cyano-N-[3-(difluoromethoxy)phenyl]carbamimidoyl}-3-(3,4-dichlorophenyl)-4,5-dihydro-1H-pyrazol-4-yl]-N-ethyl-beta-alaninamide], with 286 nM. `CCN(C(=O)CO)C1CN(/C(=N\C#N)Nc2cccc(OCCN(C)C)c2)N=C1c1ccc(Cl)c(Cl)c1` (racemic) [Example 16, Rac-N-[1-(N′-cyano-N-{3-[2-(dimethylamino)ethoxy]phenyl}carbamimidoyl)-3-(3,4-dichlorophenyl)-4,5-dihydro-1H-pyrazol-4-yl]-N-ethyl-2-hydroxyacetamide]: under setting [1], the IC50 was 358 nM.

As for `CCN(C(=O)CO)C1CN(/C(=N\C#N)Nc2cc(F)cc(OC(F)(F)F)c2)N=C1c1ccc(Cl)c(Cl)c1` (single isomer, unassigned) [Example 25.1, N-[1-{N′-cyano-N-[3-fluoro-5-(trifluoromethoxy)phenyl]carbamimidoyl}-3-(3,4-dichlorophenyl)-4,5-dihydro-1H-pyrazol-4-yl]-N-ethyl-2-hydroxyacetamide], under setting [1], the IC50 is 206 nM.

Consider `CCN(C(=O)CNC)C1CN(/C(=N\C#N)Nc2cccc(OC(F)F)c2)N=C1c1ccc(Cl)c(C)c1` (single isomer, unassigned) [Example 36.2, N-[3-(4-Chloro-3-methylphenyl)-1-{N′-cyano-N-[3-(difluoromethoxy)phenyl]carbamimidoyl}-4,5-dihydro-1H-pyrazol-4-yl]-N-ethyl-N2-methylglycinamide], for which the IC50 under setting [1] turned out to be 22.9 nM. As for `CCN(C(=O)CCCN)C1CN(/C(=N\C#N)Nc2cccc(OC(F)F)c2)N=C1c1ccc(Cl)c(Cl)c1` (single isomer, unassigned) [Example 10.1, 4-amino-N-[1-{N′-cyano-N-[3-(difluoromethoxy)phenyl]carbamimidoyl}-3-(3,4-dichlorophenyl)-4,5-dihydro-1H-pyrazol-4-yl]-N-ethylbutanamide], the IC50 under setting [1] came to 199 nM. Turning to `CCN(C(=O)CO)C1CN(/C(=N\C#N)Nc2cccc(OCCN(C)C)c2)N=C1c1ccc(Cl)c(Cl)c1` (single isomer, unassigned) [Example 16.1, N-[1-(N′-cyano-N-{3-[2-(dimethylamino)ethoxy]phenyl}carbamimidoyl)-3-(3,4-dichlorophenyl)-4,5-dihydro-1H-pyrazol-4-yl]-N-ethyl-2-hydroxyacetamide], the IC50 under setting [1] was determined as 4790 nM. On to `CCN(C(=O)CO)C1CN(/C(=N\C#N)Nc2cccc(OC(F)F)c2)N=C1c1ccc(Cl)c(Cl)c1` (single isomer, unassigned) [Example 4.1, N-[1-{N′-cyano-N-[3-(difluoromethoxy)phenyl]carbamimidoyl}-3-(3,4-dichlorophenyl)-4,5-dihydro-1H-pyrazol-4-yl]-N-ethyl-2-hydroxyacetamide], for which the IC50 is, setting by setting: (comparison example versus WO 2006/072350) 28.2 nM; under setting [1], 28.2 nM. Turning to `CCN(C(=O)CO)C1CN(/C(=N\C#N)Nc2cccc(CC(F)(F)F)c2)N=C1c1ccc(Cl)c(Cl)c1` (racemic) [Example 21, Rac-N-[1-{N′-cyano-N-[3-(2,2,2-trifluoroethyl)phenyl]carbamimidoyl}-3-(3,4-dichlorophenyl)-4,5-dihydro-1H-pyrazol-4-yl]-N-ethyl-2-hydroxyacetamide], the IC50 under setting [1] stood at 1070 nM. As to `CCN(C(=O)CO)C1CN(/C(=N\C#N)Nc2cccc(OC(F)F)n2)N=C1c1ccc(Cl)c(Cl)c1` (single isomer, unassigned) [Example 20.1, N-[1-{N′-cyano-N-[6-(difluoromethoxy)pyridin-2-yl]carbamimidoyl}-3-(3,4-dichlorophenyl)-4,5-dihydro-1H-pyrazol-4-yl]-N-ethyl-2-hydroxyacetamide], the IC50 under setting [1] worked out at 17400 nM. The same measure, in the same setting: then `CCN(C(=O)CO)C1CN(/C(=N\C#N)Nc2cccc(OC(F)F)c2)N=C1c1ccc(Cl)c(C)c1` (single isomer, unassigned) [Example 33.1, N-[3-(4-chloro-3-methylphenyl)-1-{N′-cyano-N-[3-(difluoromethoxy)phenyl]carbamimidoyl}-4,5-dihydro-1H-pyrazol-4-yl]-N-ethyl-2-hydroxyacetamide], with 18400 nM; and `CCN(C(=O)CO)C1CN(/C(=N\C#N)Nc2cccc(CC(F)(F)F)c2)N=C1c1ccc(Cl)c(Cl)c1` (single isomer, unassigned) [Example 21.2, N-[1-{N′-cyano-N-[3-(2,2,2-trifluoroethyl)phenyl]carbamimidoyl}-3-(3,4-dichlorophenyl)-4,5-dihydro-1H-pyrazol-4-yl]-N-ethyl-2-hydroxyacetamide], with 763 nM; and `CCN(C(=O)CO)C1CN(/C(=N\C#N)Nc2cccc(CC(F)(F)F)c2)N=C1c1ccc(Cl)c(Cl)c1` (single isomer, unassigned) [Example 21.1, N-[1-{N′-cyano-N-[3-(2,2,2-trifluoroethyl)phenyl]carbamimidoyl}-3-(3,4-dichlorophenyl)-4,5-dihydro-1H-pyrazol-4-yl]-N-ethyl-2-hydroxyacetamide], with 53 nM. Still for that read-out and setting: then `CCN(C(=O)CO)C1CN(/C(=N\C#N)Nc2cccc(OC)c2)N=C1c1ccc(Cl)c(Cl)c1` (racemic) [Example 15, Rac-N-{1-[N′-cyano-N-(3-methoxyphenyl)carbamimidoyl]-3-(3,4-dichlorophenyl)-4,5-dihydro-1H-pyrazol-4-yl}-N-ethyl-2-hydroxyacetamide], with 121 nM; and `CC(C)[C@@](C)(N)C(=O)NC1CN(/C(=N\C#N)Nc2cccc(OC(F)F)c2)N=C1c1ccc(Cl)c(Cl)c1` (stereo partly drawn) [Example 38, N-[1-{N′-cyano-N-[3-(difluoromethoxy)phenyl]carbamimidoyl}-3-(3,4-dichlorophenyl)-4,5-dihydro-1H-pyrazol-4-yl]-3-methyl-D-isovalinamide], with 32 nM; and `CCN(C(=O)CO)C1CN(/C(=N\C#N)Nc2cccc(OC(F)F)c2)N=C1c1ccc(Cl)c(C)c1` (racemic) [Example 33, Rac-N-[3-(4-chloro-3-methylphenyl)-1-{N′-cyano-N-[3-(difluoromethoxy)phenyl]-carbamimidoyl}-4,5-dihydro-1H-pyrazol-4-yl]-N-ethyl-2-hydroxyacetamide], with 84.5 nM. On to `CCN(C(=O)CO)C1CN(/C(=N\C#N)Nc2cccc(OC(F)(F)F)c2)N=C1c1ccc(Cl)c(Cl)c1` (single isomer, unassigned) [Example 13.2, N-[1-{N′-cyano-N-[3-(trifluoromethoxy)phenyl]carbamimidoyl}-3-(3,4-dichlorophenyl)-4,5-dihydro-1H-pyrazol-4-yl]-N-ethyl-2-hydroxyacetamide], for which the IC50 under setting [1] worked out at 50 nM. Still for that read-out and setting: then `CCN(C(=O)CNC)C1CN(/C(=N\C#N)Nc2cccc(OC(F)F)c2)N=C1c1ccc(Cl)c(C)c1` (single isomer, unassigned) [Example 36.1, N-[3-(4-Chloro-3-methylphenyl)-1-{N′-cyano-N-[3-(difluoromethoxy)phenyl]carbamimidoyl}-4,5-dihydro-1H-pyrazol-4-yl]-N-ethyl-N2-methylglycinamide], with 754 nM.

For `CCN(C(=O)CO)C1CN(/C(=N\C#N)Nc2cccc(OC)c2)N=C1c1ccc(Cl)c(Cl)c1` (single isomer, unassigned) [Example 15.1, N-{1-[N′-cyano-N-(3-methoxyphenyl)carbamimidoyl]-3-(3,4-dichlorophenyl)-4,5-dihydro-1H-pyrazol-4-yl}-N-ethyl-2-hydroxyacetamide], the IC50 under setting [1] amounted to 17600 nM.

For the origin of these results see patent US10023539B2, “Aryl-cyanoguanidine compounds” (Bayer Pharma Aktiengesellschaft, priority 2014, dated 2018).
